Tested on: Pseudomonas aeruginosa
Experiment: Binding affinity to Pseudomonas aeruginosa LpxC assessed as residence time incubated for 18 hrs by fluorescence based assay

Structure (SMILES): COc1ccc(-c2ccn(CCC(C)(C(=O)NO)S(C)(=O)=O)c(=O)c2)cc1 (racemic)
- TIME: 0.25 h

Source: ChEMBL document CHEMBL5126627, “Structure-Kinetic Relationship Studies for the Development of Long Residence Time LpxC Inhibitors” (J Med Chem, 2022)
